± gives the expanded uncertainty stated by the source.
How the values were obtained:
[1] = 101.33 kPa, Liquid, Vibrating tube method
[2] = excess molar enthalpy (molar enthalpy of mixing); xn = mol fraction of the nth substance listed; settings: 100 kPa, Liquid, Calvet calorimetry

CCCCOCCCC [dibutyl ether]
[1]
Settings	mass density [kg/m3]
298.15 K	764.11 ± 0.2
308.15 K	755.91 ± 0.2

CCCCOCCCC [dibutyl ether] + CCCCCO
[2]
Settings	excess molar enthalpy [kcal/mol]
298.15 K, x1 = 0.0625	0.0339 ± 0.000717
298.15 K, x1 = 0.1224	0.0652 ± 0.00143
298.15 K, x1 = 0.1662	0.0872 ± 0.00191
298.15 K, x1 = 0.2329	0.113 ± 0.00239
298.15 K, x1 = 0.2901	0.142 ± 0.00311
298.15 K, x1 = 0.3528	0.163 ± 0.00359
298.15 K, x1 = 0.4129	0.179 ± 0.00382
298.15 K, x1 = 0.4763	0.195 ± 0.0043
298.15 K, x1 = 0.5409	0.205 ± 0.0043
298.15 K, x1 = 0.6036	0.208 ± 0.00454
298.15 K, x1 = 0.6587	0.207 ± 0.00454
298.15 K, x1 = 0.7219	0.202 ± 0.0043
298.15 K, x1 = 0.7756	0.187 ± 0.00406
298.15 K, x1 = 0.8253	0.17 ± 0.00359
298.15 K, x1 = 0.9031	0.123 ± 0.00263
298.15 K, x1 = 0.9273	0.101 ± 0.00215
308.15 K, x1 = 0.0559	0.0347 ± 0.000717
308.15 K, x1 = 0.1172	0.0707 ± 0.00167
308.15 K, x1 = 0.1759	0.103 ± 0.00215
308.15 K, x1 = 0.228	0.129 ± 0.00287
308.15 K, x1 = 0.2926	0.157 ± 0.00335
308.15 K, x1 = 0.3469	0.178 ± 0.00382
308.15 K, x1 = 0.3922	0.19 ± 0.00406
308.15 K, x1 = 0.4624	0.211 ± 0.00454
308.15 K, x1 = 0.5372	0.224 ± 0.00478
308.15 K, x1 = 0.5914	0.228 ± 0.00478
308.15 K, x1 = 0.6516	0.23 ± 0.00502
308.15 K, x1 = 0.7132	0.224 ± 0.00478
308.15 K, x1 = 0.7681	0.208 ± 0.00454
308.15 K, x1 = 0.8942	0.15 ± 0.00335
308.15 K, x1 = 0.9494	0.0837 ± 0.00191
